Amino acid sequences for entries named in this document (tags omitted).
UniProt Q01064, whole entry: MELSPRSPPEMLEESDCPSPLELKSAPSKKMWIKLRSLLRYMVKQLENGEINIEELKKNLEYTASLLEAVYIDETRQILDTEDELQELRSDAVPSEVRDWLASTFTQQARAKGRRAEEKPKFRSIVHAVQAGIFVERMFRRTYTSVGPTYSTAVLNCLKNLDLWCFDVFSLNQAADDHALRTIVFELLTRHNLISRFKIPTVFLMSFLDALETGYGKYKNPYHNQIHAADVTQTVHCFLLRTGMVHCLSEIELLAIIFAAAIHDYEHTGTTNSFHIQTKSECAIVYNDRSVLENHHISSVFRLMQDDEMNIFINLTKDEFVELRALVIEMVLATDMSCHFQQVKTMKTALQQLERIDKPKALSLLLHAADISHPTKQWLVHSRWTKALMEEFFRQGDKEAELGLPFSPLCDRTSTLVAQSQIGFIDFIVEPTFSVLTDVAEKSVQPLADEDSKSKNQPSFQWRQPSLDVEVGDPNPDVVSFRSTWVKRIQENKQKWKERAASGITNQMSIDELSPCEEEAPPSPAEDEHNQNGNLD
UniProt P54750, whole entry: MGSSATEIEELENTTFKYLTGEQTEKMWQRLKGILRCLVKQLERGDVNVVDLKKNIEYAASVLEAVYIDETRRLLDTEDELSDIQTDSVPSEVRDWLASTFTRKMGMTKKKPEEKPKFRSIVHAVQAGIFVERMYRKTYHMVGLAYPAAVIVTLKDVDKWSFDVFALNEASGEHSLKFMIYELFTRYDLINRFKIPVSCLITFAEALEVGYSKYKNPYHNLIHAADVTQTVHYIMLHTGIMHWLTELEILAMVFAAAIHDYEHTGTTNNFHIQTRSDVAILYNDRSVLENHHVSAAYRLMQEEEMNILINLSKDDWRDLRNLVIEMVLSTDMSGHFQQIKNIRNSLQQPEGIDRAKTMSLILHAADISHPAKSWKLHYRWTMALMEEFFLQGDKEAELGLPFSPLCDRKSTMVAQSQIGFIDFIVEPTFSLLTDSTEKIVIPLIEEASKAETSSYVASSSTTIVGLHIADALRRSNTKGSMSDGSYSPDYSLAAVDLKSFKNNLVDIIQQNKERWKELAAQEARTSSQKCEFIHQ
UniProt Q14123, whole entry: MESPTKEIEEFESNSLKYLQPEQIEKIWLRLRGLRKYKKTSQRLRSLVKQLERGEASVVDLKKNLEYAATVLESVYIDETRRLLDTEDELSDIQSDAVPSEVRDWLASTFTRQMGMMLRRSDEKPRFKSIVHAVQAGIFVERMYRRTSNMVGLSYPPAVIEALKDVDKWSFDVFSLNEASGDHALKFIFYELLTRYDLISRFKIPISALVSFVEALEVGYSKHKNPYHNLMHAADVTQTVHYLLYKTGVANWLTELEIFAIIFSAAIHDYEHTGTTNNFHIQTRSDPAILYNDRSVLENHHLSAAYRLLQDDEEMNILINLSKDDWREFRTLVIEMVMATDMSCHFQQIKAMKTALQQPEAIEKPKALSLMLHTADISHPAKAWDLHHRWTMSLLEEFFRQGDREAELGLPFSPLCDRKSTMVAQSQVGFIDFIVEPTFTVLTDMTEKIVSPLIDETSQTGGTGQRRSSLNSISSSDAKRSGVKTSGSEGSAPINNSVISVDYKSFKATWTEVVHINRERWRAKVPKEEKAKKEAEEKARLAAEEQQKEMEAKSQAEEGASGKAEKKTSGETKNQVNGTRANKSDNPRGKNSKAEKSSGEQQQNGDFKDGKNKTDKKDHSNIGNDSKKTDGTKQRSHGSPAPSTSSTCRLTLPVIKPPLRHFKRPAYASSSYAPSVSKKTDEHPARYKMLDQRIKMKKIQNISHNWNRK

According to patent US20180044343A1, “BICYCLIC IMIDAZOLO DERIVATIVE” (Sumitomo Dainippon Pharma Co., Ltd., priority 2015, published 2018):

How the values were obtained:
PDE1B [1] = biological target: T1, PDE1B (Homo sapiens, UniProt Q01064); test: In vitro HTRF PDE1 inhibition assay (PDE1B); type: biochemical
PDE1A3 [2] = biological target: T2, PDE1A3 (Homo sapiens, UniProt P54750); test: In vitro HTRF PDE1 inhibition assay (PDE1A3); type: biochemical; conditions: read-out: IC50 (μM), in vitro PDE1A3 HTRF Assay, PDE1A3, 100 nM cyclic GMP
From the text: (§1) An exemplary procedure for the in vitro Homogenous Time Resolved Fluorescence assay, which can be used to determine the inhibitory action of compounds of the present invention toward PDE1 or its isoforms, follows.
(§2) The HTRF PDE1 assay utilized the HTRF (Homogenous Time Resolved Fluorescence) technology, which is based on the competition between unlabeled cyclic nucleotide and cyclic nucleotide labeled with XL665 for the binding to cyclic nucleotide-specific antibody labeled with cryptate. The HTRF signal is thus inversely proportional to the concentration of cyclic nucleotide being measured. Since phosphodiesterases break down cyclic nucleotides, the HTRF signal was used to determine PDE activity.
(§3) The Cisbio cGMP HTRF assay kit (Cat no: 62GM2PEC) was utilized. Cyclic GMP was diluted to 200 nM in HTRF assay buffer (1 mM CaCl2, 10 mM MgCl2, 10 mM Tris-HCl, 0.1% BSA, pH 7.4). 10 μl of compound or DMSO was diluted in 200 nM cyclic GMP solution and added to wells of a 96 well white plate to give 100 nM cyclic GMP in 1% DMSO final concentration. PDE (1A3, 1B or 1C) was diluted to 2× working concentration in HTRF assay buffer with 2 μg/ml Calmodulin, and 10 μl was added to initiate the reaction. […] The plate was then read on Perkin Elmer EnVision at 2 different FRET readings ex/em 340 nm/665 nm and 340 nm/615 nm. […]

PDE1B [3] = biological target: T1, PDE1B; test: In vitro SPA PDE1 inhibition assay (PDE1B); conditions: read-out: IC50 (μM), in vitro PDE1B SPA Assay, [3H]-cGMP 100 nM
Protocol: (§4) The commercially available Scintillation Proximity Assay (SPA) system (Perkinelmer) was used for PDE1 inhibition assays. SPA Yttrium Silicate beads preferentially binds to non-cyclic GMP compared to cyclic GMP (cGMP) in the presence of zinc sulphate, which enables to measure the amount of enzyme reaction product ([^3H]-GMP) by scintillation counting.
(§5) For PDE1 inhibition assay, 10 μl of the test compounds in 5% dimethyl sulfoxide diluted in SPA assay buffer (1 mM CaCl2, 10 mM MgSO4, 10 mM Tris-HCl, pH 7.4) were placed in a 96-well white microtiter plate, and 20 μl of [^3H]-cGMP solution (100 nM final concentration, Perkinelmer) in SPA assay buffer was added. Assays were initiated by adding 20 μl of PDE (1A3, 1B or 1C) enzyme solution including calmodulin (final concentration 1 μg/ml). After 30 min incubation at 27° C., the reaction was stopped by the addition of 50 μl of a suspension of 10 mg/ml SPA beads in 18 mM ZnSO4. The microtiter plates were settled for 60 min, and then were measured in a TopCount NXT scintillation counter (PerkinElmer). IC50 values were determined from sigmoidal curves by plotting the percentage of PDE activity versus log compound concentration. IC50 was defined as the concentration of the test compounds required to inhibit the cyclic nucleotide hydrolyzing activities of tested PDEs by 50%.

PDE1A3 [4] = biological target: T2, PDE1A3; test: In vitro SPA PDE1 inhibition assay (PDE1A3); conditions: read-out: IC50 (μM), in vitro PDE1A3 SPA Assay, PDE1A3, [3H]-cGMP 100 nM
Protocol: as §4, §5

PDE1C [5] = biological target: T3, PDE1C (Homo sapiens, UniProt Q14123); test: In vitro SPA PDE1 inhibition assay (PDE1C); conditions: read-out: IC50 (μM), in vitro PDE1C SPA Assay, [3H]-cGMP 100 nM
Protocol: as §4, §5

PDE1C [6] = biological target: T3, PDE1C; test: In vitro HTRF PDE1 inhibition assay (PDE1C); type: biochemical; conditions: read-out: IC50 (μM), in vitro PDE1C HTRF Assay, 100 nM cyclic GMP
From the text: as §1, §2, §3

| IC50 (PDE1B [1]) | SMILES | further results |
| --- | --- | --- |
| < 1000 nM | CCn1c(OCCOC)nn2c(C(C)C)ncc2c1=O |  |
| < 1000 nM | CC(C)c1ncc2c(=O)n(C)c(OCc3ccc(F)cn3)nn12 |  |
| < 1000 nM | Cn1c(OCC2CCC(F)(F)CC2)nn2c(C3CCOCC3)ncc2c1=O |  |
| < 1000 nM | CC(Oc1nn2c(C3CCOCC3)ncc2c(=O)n1C)C1CCC(F)(F)CC1 (centres unmarked) |  |
| < 1000 nM | Cn1c(OCc2nccs2)nn2c(C3CCOCC3)ncc2c1=O |  |
| < 1000 nM | Cc1ccc(COc2nn3c(C(C)C)ncc3c(=O)n2C)cc1 |  |
| < 1000 nM | Cn1c(OCc2ccccn2)nn2c(C3CCOCC3)ncc2c1=O |  |
| 1000 to 10000 nM | COc1ccc(COc2nn3c(C4CCOCC4)ncc3c(=O)n2C)cc1 |  |
| < 1000 nM | Cn1c(OCCOc2ccc(F)cc2)nn2c(C3CCOCC3)ncc2c1=O |  |
| < 1000 nM | CCn1c(OCc2ccncc2)nn2c(C(C)C)ncc2c1=O |  |
| < 1000 nM | Cn1c(OCc2ccc(F)cc2)nn2c(C3CCOCC3)ncc2c1=O |  |

| SMILES | IC50 (PDE1B [1]) | further results |
| --- | --- | --- |
| CC(C)c1ncc2c(=O)n(C)c(OCC3CCOCC3)nn12 | < 1000 nM | IC50 (PDE1A3 [2]): < 1 µM; IC50 (PDE1B [3]): 0.469 µM; IC50 (PDE1A3 [4]): 1.43 µM; IC50 (PDE1C [5]): 4.88 µM; IC50 (PDE1C [6]): 1 to 10 µM |
